Experimental data taken from patent US20200397807A1, “NICOTINYL RIBOSIDE COMPOUNDS AND THEIR USES” (MitoPower, LLC, priority 2019, published 2020).

Tests used:
HepG2 cells [1] = experiment: ATP assay (CellTiter-Glo); conditions: effect of MNNG treatment, FIG. 25
Jurkat cells [2] = experiment: Total cellular NAD^+ level after MNNG-induced depletion (NAD/NADH Glo assay); type: cell-based; conditions: at 4 hr
Jurkat cells [3] = experiment: NAD^+ assay (total cellular NAD^+ by HPLC/LCMS), with or without MNNG; conditions: Jurkat treated with MNNG 30 min, then compounds 4 hr; n=3; FIG. 19A
HepG2 cells [4] = experiment: as above; conditions: effect of MNNG treatment, FIG. 23
Jurkat cells [5] = experiment: NAD^+/NADH ratio (NAD^+ by HPLC/LCMS, NADH production by CellTiter-Blue); conditions: effect of MNNG treatment, FIG. 20
HepG2 cells [6] = experiment: as above; conditions: effect of MNNG treatment, FIG. 24
Jurkat cells [7] = experiment: MNNG-induced cytotoxicity / cytoprotection (CellTiter-Blue Cell Viability Assay); conditions: at 4 hr

## CN(N=O)C(=N)N[N+](=O)[O-]
HepG2 cells [1]
  ATP level: significantly reduced
Jurkat cells [2]; 75 μM MNNG 30 min
  % depletion of NAD^+ level: 92.1%
Jurkat cells [2]; 100 μM MNNG 30 min
  % depletion of NAD^+ level: 76.9% and 94%
Jurkat cells [3]
  NAD^+ level: markedly reduced
HepG2 cells [4]
  NAD^+ level: markedly reduced
Jurkat cells [5]
  NAD^+/NADH ratio: markedly reduced
HepG2 cells [6]
  NAD^+/NADH ratio: markedly reduced
Jurkat cells [7]; 75 μM MNNG 30 min
  % cytotoxicity: 87%
Jurkat cells [7]; 150 μM MNNG 30 min
  % cytotoxicity: 63.2%
Jurkat cells [7]; 200 μM MNNG 30 min
  % cytotoxicity: 78%

Where “and” joins values, the source holds several entries; their conditions need not be identical. Equal entries are not always repeated.
